Screening data as filed in PubChem BioAssay.
The list is not random: actives were taken first. Their share in the collection is about 2.3%.
NRP1-CendR mod – modulators of CendR peptide binding to NRP-1, primary screen, biochemical, fluorescence polarization, uHTS; inhibition, % at 25 µM; Neuropilin-1 (Homo sapiens), O14786; FAM-RPARPAR peptide binding to NRP-1; 360,000 compounds, 0.85% hits;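 active = inhibition or corrected inhibition above about 18%, plus a signal ratio from 0.5 to 1.5, limit read from the data, passing the limit was not always enough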
Yeast UUG start – alters start codon recognition fidelity in yeast | S. cerevisiae UUG-firefly luciferase reporter, luminescence/redox ratio | activity score, % at 18.7 µM | 350,000 compounds, 0.13% hits | AID 602363;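 active = replicate mean at a twofold rise or more, about +100% in these data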;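 note: firefly luciferase made from a UUG start codon reports start codon fidelity; reporter light over untreated wells divided by growth signal over untreated wells; some hits fall short of that in this replicate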
ASAP1 GAP inh – inhibitors of human ASAP1 ArfGAP activity, primary screen, biochemical, fluorescence polarization | Arf-GAP with SH3 domain, ANK repeat and PH domain-containing protein 1 (Homo sapiens), … | ASAP1-stimulated ARF1 GTP hydrolysis, GDP FP detection | inhibition, % at 16.5 µM | 360,000 compounds, 0.19% hits | AID 624377, 2012; in the data active = inhibition above about 25%;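 also: 0% = vehicle with enzyme and substrate and 100% = no enzyme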
MC4R barr agon – MC4R agonists recruiting beta-arrestin, primary screen, cell-based, luminescence, agonist arm of biased-ligand search. activation, % at 8.9 µM. Melanocortin receptor 4 (Homo sapiens), P32245. U2OS MC4R beta-arrestin complementation; percent of melanotan II response, DMSO zero. AID 540308, 2011. 360,000 compounds, 0.98% hits;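 active = activation above a per-plate cutoff, the mean activation of sample wells on that plate plus 3 SD, cut at about 8% in these data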
MC4R antagonist – MC4R antagonists of cAMP signaling, primary screen, cell-based, TR-FRET, antagonist arm of biased-ligand search; MC4R-expressing cells, MTII-stimulated cAMP, LANCE TR-FRET; inhibition, % at 6.5 µM; 360,000 compounds, 0.48% hits;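 active = inhibition above its plate's cutoff, the mean of tested wells on that plate plus 3 SD, cut at about 29% in these data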;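 also: 0% = Melanotan II alone and 100% = Melanotan II plus saturating MCL0020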
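Material: human MC4R-expressing U2OS cells. Probe or stimulus: Melanotan II challenge. Dosing: 6.5 µM single dose. Times: 30-min compound, 1-h challenge, 1-h detection, room temperature. Technique: TR-FRET with Eu-cAMP and labeled anti-cAMP, 671 nm. Replication: singlicate.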
ARFGAP1 inh – inhibitors of rat ARFGAP1 GAP activity, primary screen, biochemical, fluorescence polarization, GDP tracer; ADP-ribosylation factor GTPase-activating protein 1 (Rattus norvegicus), Q62848; 360,000 compounds, 0.26% hits; inhibition, % at 16.5 µM; AID 651572, 2012; Arfgap1-stimulated ARF1 GTP hydrolysis, GDP FP detection;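 active = inhibition above a per-plate limit, mean inhibition of low control wells plus 3 SD, cut at about 25% in these data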;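 also: 0% = DMSO wells with enzyme and 100% = wells lacking Arfgap1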
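Assay system: purified rat His6-Arfgap1 residues 1-136 (GAP domain); Reagent: human Δ17 ARF1 bound to GTP; Dosing: 16.5 µM single point, 1.26% DMSO; Times: GTP hydrolysis reaction 2 h at 25 °C; Signal: FP, GDP Alexa 633 tracer displaced from anti-GDP antibody, 620/688 nm; Measure: % inhibition from polarization.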
U2OS cAMP counter – nonselective cAMP signaling inhibitors, parental cells, counter-screen for MC4R biased antagonist project, cell-based, TR-FRET, U2OS, forskolin, triplicate; shares compounds with MC4R antagonist; LANCE TR-FRET; inhibition, % at 6.5 µM; 1,600 compounds, 26% hits; AID 602193, 2012;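 active = mean inhibition over triplicates above the low-control well mean plus 3 SD, set per campaign, cut at about 13% in these data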;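 also: signal is single emission at 671 nm which falls as cellular cAMP rises; 0% = forskolin-stimulated wells and 100% = buffer without forskolin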
MC4R antag conf – MC4R cAMP antagonists, retest, confirmation, cell-based, TR-FRET. shares compounds with MC4R antagonist. MC4R-expressing cells, MTII-stimulated cAMP. inhibition, % at 6.5 µM. 1,600 compounds, 27% hits. AID 602195, 2012; in the data active = inhibition above about 29%;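 also: 0% = agonist stimulated wells alone and 100% = agonist stimulated wells plus saturating reference antagonist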
Starred values were filed as active, the others as inactive.

Amino acid sequences for entries named in this document (tags omitted).
Neuropilin-1 (Homo sapiens), O14786, UniProt O14786, whole entry, looked up: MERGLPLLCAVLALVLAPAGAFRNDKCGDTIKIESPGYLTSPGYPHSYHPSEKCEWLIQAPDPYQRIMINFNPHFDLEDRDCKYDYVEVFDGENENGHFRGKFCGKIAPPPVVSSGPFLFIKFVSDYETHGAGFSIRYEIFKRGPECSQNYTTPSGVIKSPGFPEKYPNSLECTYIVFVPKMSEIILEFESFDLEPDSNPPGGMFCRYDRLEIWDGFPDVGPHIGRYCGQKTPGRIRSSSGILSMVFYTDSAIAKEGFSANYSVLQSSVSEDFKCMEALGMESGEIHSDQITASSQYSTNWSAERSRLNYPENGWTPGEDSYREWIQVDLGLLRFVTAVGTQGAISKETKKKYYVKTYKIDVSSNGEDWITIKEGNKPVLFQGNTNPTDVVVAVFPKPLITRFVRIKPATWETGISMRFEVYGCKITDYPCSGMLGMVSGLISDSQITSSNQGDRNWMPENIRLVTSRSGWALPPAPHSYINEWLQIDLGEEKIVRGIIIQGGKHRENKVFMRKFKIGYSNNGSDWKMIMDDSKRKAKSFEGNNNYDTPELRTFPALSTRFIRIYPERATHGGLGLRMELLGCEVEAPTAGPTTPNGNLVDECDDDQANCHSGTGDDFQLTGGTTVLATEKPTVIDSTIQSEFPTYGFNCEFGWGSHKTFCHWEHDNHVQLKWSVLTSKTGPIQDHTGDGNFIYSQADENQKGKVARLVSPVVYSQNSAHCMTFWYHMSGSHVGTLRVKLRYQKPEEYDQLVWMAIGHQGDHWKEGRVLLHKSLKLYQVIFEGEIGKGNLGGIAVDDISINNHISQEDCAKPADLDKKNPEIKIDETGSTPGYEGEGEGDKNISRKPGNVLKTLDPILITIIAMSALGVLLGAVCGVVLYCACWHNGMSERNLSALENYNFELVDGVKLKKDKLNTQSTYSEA
Melanocortin receptor 4 (Homo sapiens), P32245, UniProt P32245, whole entry, looked up: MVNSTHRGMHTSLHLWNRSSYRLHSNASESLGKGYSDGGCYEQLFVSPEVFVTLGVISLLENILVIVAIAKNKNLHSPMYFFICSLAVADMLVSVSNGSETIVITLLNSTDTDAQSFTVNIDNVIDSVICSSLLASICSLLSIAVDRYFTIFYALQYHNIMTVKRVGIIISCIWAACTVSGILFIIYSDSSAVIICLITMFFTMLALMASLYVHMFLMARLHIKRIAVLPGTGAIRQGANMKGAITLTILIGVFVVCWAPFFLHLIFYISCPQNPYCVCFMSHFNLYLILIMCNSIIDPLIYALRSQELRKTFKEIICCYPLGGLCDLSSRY
ADP-ribosylation factor GTPase-activating protein 1 (Rattus norvegicus), Q62848, UniProt Q62848, whole entry, looked up: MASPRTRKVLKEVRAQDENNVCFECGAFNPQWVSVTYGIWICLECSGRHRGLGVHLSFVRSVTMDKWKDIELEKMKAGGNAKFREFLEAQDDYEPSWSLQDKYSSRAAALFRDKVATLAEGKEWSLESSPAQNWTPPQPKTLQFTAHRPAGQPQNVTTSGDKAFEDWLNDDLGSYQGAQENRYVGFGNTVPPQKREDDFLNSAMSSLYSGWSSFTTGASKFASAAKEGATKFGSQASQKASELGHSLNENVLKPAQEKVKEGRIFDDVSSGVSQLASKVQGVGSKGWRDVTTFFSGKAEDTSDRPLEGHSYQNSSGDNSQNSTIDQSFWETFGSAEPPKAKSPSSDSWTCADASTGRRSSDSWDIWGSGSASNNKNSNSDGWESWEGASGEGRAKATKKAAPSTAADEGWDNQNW

How did C[C@H](CO)N1C[C@H](C)[C@@H](CN(C)C(=O)NC2CCCCC2)Oc2c(NC(=O)Nc3ccc(C(F)(F)F)cc3)cccc2C1=O do in these assays?
NRP1-CendR mod: -3.7; Yeast UUG start: 6.3; ASAP1 GAP inh: 8.3; MC4R barr agon: 0.2; MC4R antagonist: 29.9*; ARFGAP1 inh: 5.5; U2OS cAMP counter: 1.6; MC4R antag conf: 18.3

Results for C[C@H]1CN([C@@H](C)CO)C(=O)c2cccc(NC(=O)Nc3ccc(C(F)(F)F)cc3)c2O[C@@H]1CN(C)Cc1ccc(Cl)c(Cl)c1 ?
NRP1-CendR mod: 15.7; Yeast UUG start: -31.0; ASAP1 GAP inh: 11.0; MC4R barr agon: 2.2; MC4R antagonist: 41.4*; ARFGAP1 inh: -2.9; U2OS cAMP counter: -2.7; MC4R antag conf: -12.3

How did C[C@H](CO)N1C[C@H](C)[C@@H](CN(C)C(=O)Nc2ccc3c(c2)OCO3)Oc2c(NC(=O)Nc3ccc(C(F)(F)F)cc3)cccc2C1=O do in these assays?
NRP1-CendR mod: 10.9; Yeast UUG start: 10.1; ASAP1 GAP inh: -1.8; MC4R barr agon: -0.5; MC4R antagonist: 55.6*; ARFGAP1 inh: 12.3; U2OS cAMP counter: -1.8; MC4R antag conf: 30.0*

What do the screens show for `Cc1ccc(CN2C(=O)N/C(=C\c3ccc(-c4ccc(C(=O)O)cc4C)o3)C2=O)cc1`?
NRP1-CendR mod: -30.2; Yeast UUG start: -14.5; ASAP1 GAP inh: -4.5; MC4R barr agon: -0.2; MC4R antagonist: 10.9; ARFGAP1 inh: 7.7

What do the screens show for `Cc1cc(C(=O)O)ccc1-c1ccc(/C=C2\NC(=O)N(Cc3ccccc3Cl)C2=O)o1`?
NRP1-CendR mod: -55.2; MC4R barr agon: 1.3; MC4R antagonist: 36.9*; U2OS cAMP counter: 1.8; MC4R antag conf: -3.3

What do the screens show for `O=C(C[C@@H]1CC[C@H]2[C@@H](COC[C@H](O)CN2CCC(F)(F)F)O1)N1CCC(Cc2ccccc2)CC1`?
Yeast UUG start: 2.7

Results for Cc1cc(C)cc(OC(=O)CS(=O)c2ccc(C(F)(F)F)cc2[N+](=O)[O-])c1 (centres undefined) ?
NRP1-CendR mod: 7.4; Yeast UUG start: -11.8; ASAP1 GAP inh: -2.0; MC4R barr agon: 2.5; MC4R antagonist: 22.1; ARFGAP1 inh: -3.9

Results for O=C(CS(=O)c1ccc(C(F)(F)F)cc1[N+](=O)[O-])Oc1ccc(Cl)cc1 (centres undefined) ?
NRP1-CendR mod: 1.7; Yeast UUG start: -20.6; ASAP1 GAP inh: 12.5; MC4R barr agon: 3.2; MC4R antagonist: 33.4*; ARFGAP1 inh: 7.6; U2OS cAMP counter: 9.1; MC4R antag conf: 27.9

How did Cc1ccc(S(=O)(=O)N(C)C[C@@H]2Oc3ccc(NC(=O)Cc4ccccc4)cc3C(=O)N([C@@H](C)CO)C[C@@H]2C)cc1 do in these assays?
Yeast UUG start: 27.3

How did C[C@@H]1CN([C@H](C)CO)C(=O)c2cc(C3=CCCC3)cnc2O[C@@H]1CN(C)C(=O)CN1CCOCC1 do in these assays?
Yeast UUG start: 10.1

Results for CCOC(=O)c1sc(NC(=O)CCN2CCN(CC)CC2)c(C(=O)OCC)c1C ?
NRP1-CendR mod: 1.5; ASAP1 GAP inh: -20.2; MC4R barr agon: -4.5; MC4R antagonist: 42.3*; ARFGAP1 inh: -7.2; U2OS cAMP counter: 6.7; MC4R antag conf: 26.2

What do the screens show for `Cc1ccc(S(=O)(=O)N[C@H]2C=C[C@@H](CC(=O)NCCc3ccncc3)O[C@H]2CO)cc1`?
Yeast UUG start: -15.2

What do the screens show for `O=C1C2C(c3ccccc3)(C(=O)N1c1ccc(Cl)cc1)C2(c1ccccc1)c1ccccc1` (centres undefined)?
NRP1-CendR mod: -3.4; ASAP1 GAP inh: 9.9; MC4R barr agon: 0.7; MC4R antagonist: 38.0*; ARFGAP1 inh: 9.5; U2OS cAMP counter: -6.9; MC4R antag conf: -6.3

Results for C[C@@H]1CCCCO[C@@H](CN(C)Cc2ccccc2)[C@@H](C)CN([C@@H](C)CO)C(=O)c2cc(NC(=O)CCCN(C)C)ccc2O1 ?
Yeast UUG start: 5.3

What do the screens show for `O=C(C1CC1)N1C[C@H]2[C@@H](c3ccccc31)[C@H](CO)N2C(=O)c1ccccn1`?
Yeast UUG start: -22.1

Results for CCOC(=O)c1c(NC(=O)COC(=O)CCNS(=O)(=O)c2ccccc2)sc(C(=O)NC)c1C ?
NRP1-CendR mod: 16.4; Yeast UUG start: 3.0; ASAP1 GAP inh: -3.4; MC4R barr agon: 0.1; MC4R antagonist: 31.2*; ARFGAP1 inh: -10.4; U2OS cAMP counter: 4.7; MC4R antag conf: 4.9

How did CCOC(=O)C1CCCN(C(=O)c2cccc([N+](=O)[O-])c2C)C1 (centres undefined) do in these assays?
NRP1-CendR mod: 4.1; ASAP1 GAP inh: 12.4; MC4R barr agon: 1.2; MC4R antagonist: 32.1*; ARFGAP1 inh: 7.1; U2OS cAMP counter: -1.5; MC4R antag conf: 3.9

How did CCOC(=O)c1c(NC(=O)COc2cccc3c2CCN(C)C3=O)sc2c1CCC2 do in these assays?
NRP1-CendR mod: -19.0; ASAP1 GAP inh: -9.8; MC4R barr agon: 8.7*; MC4R antagonist: 29.8*; ARFGAP1 inh: 7.5; U2OS cAMP counter: 9.2; MC4R antag conf: 51.5*

How did COc1ccc(NC(=O)Nc2ccc3c(c2)[C@@H]2C[C@H](CC(=O)NCc4ccc5c(c4)OCO5)O[C@H](CO)[C@@H]2O3)cc1 do in these assays?
Yeast UUG start: 7.7

What do the screens show for `COc1ccc(N(C(=O)CCl)C(C(=O)NCCc2ccccc2)c2cccs2)cc1Cl` (centres undefined)?
NRP1-CendR mod: -18.0; ASAP1 GAP inh: -1.1; MC4R barr agon: 20.9*; MC4R antagonist: 34.5*; ARFGAP1 inh: -4.4; U2OS cAMP counter: -27.9; MC4R antag conf: 37.2*

Fetched by structure from the entries so far, two records:
How did C[C@H](CO)N1C[C@H](C)[C@@H](CN(C)C(=O)Nc2ccc3c(c2)OCO3)Oc2c(NC(=O)Nc3ccc(C(F)(F)F)cc3)cccc2C1=O do in these assays?
NRP1-CendR mod: 10.9; Yeast UUG start: 10.1; ASAP1 GAP inh: -1.8; MC4R barr agon: -0.5; MC4R antagonist: 55.6*; ARFGAP1 inh: 12.3; U2OS cAMP counter: -1.8; MC4R antag conf: 30.0*

Results for Cc1cc(C)cc(OC(=O)CS(=O)c2ccc(C(F)(F)F)cc2[N+](=O)[O-])c1 (centres undefined) ?
NRP1-CendR mod: 7.4; Yeast UUG start: -11.8; ASAP1 GAP inh: -2.0; MC4R barr agon: 2.5; MC4R antagonist: 22.1; ARFGAP1 inh: -3.9
